Patent US8211885B2, “Cyclic indole-3-carboxamides, their preparation and their use as pharmaceuticals” (Sanofi-Aventis, priority 2008, dated 2012)
Read-outs that look alike come from different tables or passages of the source.

Amino acid sequences for entries named in this document (tags omitted). Residues count along the entry.
UniProt P00797, 67-406: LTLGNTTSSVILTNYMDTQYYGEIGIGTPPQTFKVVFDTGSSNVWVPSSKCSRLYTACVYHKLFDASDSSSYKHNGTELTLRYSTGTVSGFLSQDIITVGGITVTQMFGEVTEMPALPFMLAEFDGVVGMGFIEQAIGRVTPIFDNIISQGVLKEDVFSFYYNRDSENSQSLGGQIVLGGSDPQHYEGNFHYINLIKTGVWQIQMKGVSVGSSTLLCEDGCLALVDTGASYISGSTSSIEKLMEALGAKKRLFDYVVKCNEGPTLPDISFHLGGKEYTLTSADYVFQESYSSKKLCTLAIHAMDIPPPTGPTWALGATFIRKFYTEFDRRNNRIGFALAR

Target: Recombinant human renin (Homo sapiens, UniProt P00797)
Test: Inhibition of renin (fluorogenic peptide substrate)
[1] = read-out: IC50 values for inhibition of renin (fluorogenic peptide substrate), renin 5 nM, substrate Dabcyl-γ-Abu-[…]-EDANS 10 μM, 2 h room temperature, Tris buffer pH 8, compounds tested as the obtained salt

| Compound | IC50 [1] [µM] | IC50 [µM] |
| --- | --- | --- |
| O=C(c1c(Oc2ccccc2)n(-c2ccc(F)cc2)c2ccccc12)N1CCNCC1 [Example 91] | 0.71 | – |
| Cc1c(F)cccc1Cc1c(C(=O)N2CCNCC2)c2ccc(OCCO)cc2n1-c1ccccc1 [Example 25, [2-(3-Fluoro-2-methyl-benzyl)-6-(2-hydroxy-ethoxy)-1-phenyl-1H-indol-3-yl]-piperazin-1-yl-methanone] | 0.031 | – |
| Cc1ccc(F)cc1Oc1c(C(=O)N2CCNCC2)c2cc(C(N)=O)ccc2n1-c1ccccc1 [Example 29, 2-(5-Fluoro-2-methyl-phenoxy)-1-phenyl-3-(piperazine-1-carbonyl)-1H-indole-5-carboxylic acid amide] | – | 0.0055 |
| O=C(c1c(Cc2c(F)cccc2Cl)n(-c2ccccc2)c2ccccc12)N1CCNCC1 [Example 17, [2-(2-Chloro-6-fluoro-benzyl)-1-phenyl-1H-indol-3-yl]-piperazin-1-yl-methanone] | 0.018 | – |
| Cc1c(F)cccc1Cc1c(C(=O)N2CCNCC2)c2ccccc2n1C1CCCCC1 [Example 32, [1-Cyclohexyl-2-(3-fluoro-2-methyl-benzyl)-1H-indol-3-yl]-piperazin-1-yl-methanone] | 0.034 | – |
